Screening results as filed in PubChem BioAssay.
Yeast UUG start: alters start codon recognition fidelity in yeast. 350,000 tested, 0.13% active. activity score, % at 18.7 µM. S. cerevisiae UUG-firefly luciferase reporter, luminescence/redox ratio;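 active = replicate mean at a twofold rise or more, about +100% in these data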;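 also: firefly luciferase made from a UUG start codon reports start codon fidelity; reporter light over untreated wells divided by growth signal over untreated wells; some hits fall short of that in this replicate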
DYRK1A inh: rat Dyrk1A kinase inhibitors, primary screen, biochemical, single point, plate reader; Dual specificity tyrosine-phosphorylation-regulated kinase 1A (Rattus norvegicus), Q63470; ADP-Glo luminescence, NFATc1 peptide; inhibition, % at 12.5 µM; hit rate 0.43% among 310,000; in the data active means inhibition above about 50%;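 further: plate controls were vehicle with enzyme for no effect and no enzyme for full effect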
dFosB activator: activators of delta FosB homodimer, primary screen, biochemical, fluorescence polarization, TAMRA-CDK5 oligo, single point; Protein FosB (Mus musculus), P13346; activation, % at 25 µM; hit rate 0.99% among 340,000; purified delta FosB; percent of positive-control signal above neutral wells;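 active means mean activation above about 17%, with every replicate also reaching it, limit read from the data, passing the limit was not always enough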
CDK5 inh: inhibitors of human CDK5/p35 kinase, primary screen, biochemical, single concentration. Cyclin-dependent kinase 5 (Homo sapiens) + Cyclin-dependent kinase 5 activator 1 (Homo …. Recombinant CDK5/p35, ADP-Glo luminescence, 60 min. inhibition, % at 10 µM. hit rate 0.01% among 330,000;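 active means highest replicate inhibition of at least 50% and at least 75% of replicates reaching 50%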;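 further: plate controls were DMSO neutral control for no effect and GW8510 at 10 µM for full effect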
CAL PDZ FP-1: CAL PDZ peptide-binding inhibitors, primary screen, biochemical, fluorescence polarization, Cer-tagged CAL PDZ, HTS | Golgi-associated PDZ and coiled-coil motif-containing protein (Homo sapiens), Q9HD26 | purified CAL PDZ, TMR-peptide fluorescence polarization, 1 h | inhibition, % at 20 µM | hit rate 0.02% among 330,000 | AID 504414, 2011;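 active means highest replicate inhibition of at least 40%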;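 further: plate controls were DMSO neutral control wells for no effect and unlabeled competitor peptide control wells for full effect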
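Test system: purified CerCALP PDZ construct; Compound dosing: one concentration, 20 µM compound; Also added: TMR-labelled reporter peptide T*-PRC34 bound in PDZ groove; Read-out: inhibition from polarization loss; Controls: unlabelled peptide and DMSO controls; Signal: FP readout, S and P plane fluorescence; Incubation: 1 h at RT.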
CAL PDZ FP-2: untagged CAL PDZ binding inhibitors, primary screen, biochemical, fluorescence polarization, HTS | Golgi-associated PDZ and coiled-coil motif-containing protein (Homo sapiens), Q9HD26 | purified CAL PDZ, TMR-peptide fluorescence polarization, 1 h | inhibition, % at 24.9 µM | hit rate 0.92% among 300,000;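 active means mean inhibition of at least 30% with at least half of replicates also reaching 30%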;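 further: 0% = DMSO neutral control and 100% = excess unlabeled competitor peptide PRC23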
The depositor's hits bear a star; . = no result given. Compounds with a hit are over-represented: about 1.7% of the library has one in this group of screens.

Every second line gives: Yeast UUG start	DYRK1A inh	dFosB activator	CDK5 inh	CAL PDZ FP-1	CAL PDZ FP-2
1) COCC(=O)N1C[C@@H](C)[C@H](OC)CN(C)C(=O)c2ccc(NC(=O)c3cc(C)on3)cc2OC[C@@H]1C
 : -10	.	.	.	.	.
2) CCNC(=O)Nc1ccc2c(c1)C(=O)N(C)[C@H]1CC[C@H](CC(=O)NCC3CC3)O[C@H]1CO2
 : 7	.	.	.	.	.
3) N#C/C(=C(/O)c1ccc2c(c1)OCO2)c1nc2cc(C(F)(F)F)ccc2s1
 : -11	3	-3	0	-1	43*
4) C[C@@H]1CN([C@@H](C)CO)S(=O)(=O)c2ccc(-c3cccc(F)c3)cc2O[C@@H]1CN(C)CC1CC1
 : 37	.	.	.	.	.
5) CN(C)CCc1cc2c(c3c1ccc1ccccc13)OCO2
 : 2	5	47*	1	1	1
6) CN(C)C(=O)c1ccc(-c2ccc3c(c2)[C@H]2[C@H](CCN2C(=O)C2CCC2)[C@@H](CO)N3C)cc1
 : 6	.	.	.	.	.
7) Cc1ccc(-c2nc3c(c(=O)[nH]c(=O)n3Cc3ccccc3)n2C)o1
 : .	-4	6	-4	-2	31*
8) C[C@@H]1CN([C@@H](C)CO)C(=O)Cc2cc(NC(=O)c3ccncc3)ccc2O[C@H]1CN(C)Cc1ccccc1
 : 2	.	.	.	.	.
9) CN(C)CCCN1C(=O)c2cccc3c([N+](=O)[O-])ccc(c23)C1=O
 : .	-2	19*	5	-1	-1
10) C[C@H]1CN([C@@H](C)CO)C(=O)c2cc(-c3ccccc3)cnc2O[C@@H]1CN(C)C(=O)Cc1ccccc1
 : -4	.	.	.	.	.
11) C[C@@H]1CN([C@H](C)CO)C(=O)Cc2cc(NC(=O)CCN3CCOCC3)ccc2O[C@@H]1CN(C)C(=O)Nc1ccc2c(c1)OCO2
 : -3	.	.	.	.	.
12) C[C@H](CO)N1C[C@H](C)[C@@H](CN(C)Cc2cncnc2)Oc2ncc(-c3cccc(C#N)c3)cc2C1=O
 : -2	.	.	.	.	.
13) COc1c(C=O)cc2c3c1CCCN3CCC2
 : -11	37	5	1	0	.
14) NCc1cc2c3c(c1)CCCN3CCC2
 : -10	2	40*	1	0	-2
15) CC1CCC(C(C)C)C(OCC(O)CNC(C)c2ccccc2)C1 (configuration not stated)
 : .	.	3	-1	0	4
16) CC1CCC(C(C)C)C(OCC(O)CNC(C)(C)C)C1 (configuration not stated)
 : .	2	3	-1	0	80*
17) O=C(C[C@@H]1CC[C@H]2[C@@H](COC[C@H](O)CN2Cc2cccc(C(F)(F)F)c2)O1)NCCc1ccccc1
 : 17	.	.	.	.	.
18) CC1CN(CCOc2ccc(F)cc2)CC(C)O1 (configuration not stated)
 : -5	1	-4	0	0	42*
19) COc1cccc(OCCCCN2CC(C)OC(C)C2)c1 (configuration not stated)
 : .	2	6	0	-1	42*
20) C=CCc1ccc(OCCCCN2CC(C)OC(C)C2)c(OC)c1 (configuration not stated)
 : .	2	6	1	-1	58*
21) C[C@H]1CN([C@@H](C)CO)C(=O)Cc2cc(NS(=O)(=O)c3ccc(Cl)cc3)ccc2O[C@H]1CN(C)C(=O)Nc1cccc2ccccc12
 : 7	.	.	.	.	.
22) Cc1ccc2cc3c(N)c(C(=O)N4CCOCC4)sc3nc2c1
 : .	5	-9	1	0	53*
23) C[C@H]1CN([C@@H](C)CO)C(=O)c2cc(Br)cnc2O[C@@H]1CN(C)C(=O)NC1CCCC1
 : 30	.	.	.	.	.
24) O=C(CN1CCN(c2ccccc2F)CC1)NC(=O)NCc1ccco1
 : .	10	-8	1	0	44*
25) COc1cc(C(=O)OCC(=O)N2CCCCC2C)ccc1OCc1c(C)noc1C (configuration not stated)
 : .	3	-5	1	0	46*
26) C[C@@H]1CN([C@H](C)CO)S(=O)(=O)c2ccc(Br)cc2O[C@H]1CN(C)Cc1cccnc1
 : 3	.	.	.	.	.
27) C[C@@H]1CN([C@H](C)CO)C(=O)c2cc(NC(=O)Nc3ccc(C(F)(F)F)cc3)ccc2O[C@H]1CN(C)Cc1ccc(Cl)c(Cl)c1
 : -12	3	-8	-3	0	37*
28) CO[C@@H]1CN(C)C(=O)c2cc(NC(=O)C3CCCC3)ccc2OC[C@@H](C)N(C)C[C@@H]1C
 : 13	.	.	.	.	.
29) C[C@H](CO)N1C[C@H](C)[C@H](CN(C)C(=O)Cc2ccccn2)Oc2cc(-c3cccc(C(=O)N(C)C)c3)ccc2S1(=O)=O
 : -6	.	.	.	.	.
30) COCCOC(=O)c1c(C)nc(SCC(=O)Nc2cccc3ccccc23)c(C#N)c1-c1ccco1
 : -20	0	0	0	0	-1
31) CNC(=O)c1c(C)nc(SCC(=O)NCc2ccc(OC)cc2)c(C#N)c1-c1ccco1
 : -3	2	-5	-1	0	55*
32) O=C(NCc1ccc2c(c1)OCO2)c1nc(Cn2ccc([N+](=O)[O-])n2)no1
 : -15	2	1	0	0	-2
33) O=C(NCc1ccc2c(c1)OCO2)c1nc(Cn2cc(Br)cn2)no1
 : -20	-5	-6	1	-1	37*
34) CO[C@@H]1CN(C)C(=O)c2cc(NC(=O)C3CC3)ccc2OC[C@H](C)N(C(=O)c2cnccn2)C[C@@H]1C
 : -1	.	.	.	.	.
35) O=[N+]([O-])c1ccc(Sc2n[nH]c(-c3ccc(Cl)cc3Cl)n2)nc1
 : -13	6	13	0	.	43*
36) C/C=C/c1ccc([C@@H]2[C@H](CO)N(C(=O)CC)[C@H]2CNC(=O)C2CC2)cc1
 : 22	.	.	.	.	.
37) Cc1cc(C)c(NC(=O)CSc2nc3ncc(Br)cc3[nH]2)c(Cl)c1
 : -21	4	69*	0	-1	-5
38) Cc1noc(C)c1NC(=O)Nc1ccc2c(c1)C(=O)N([C@@H](C)CO)C[C@H](C)[C@@H](CN(C)Cc1ccccc1)OCCCC[C@@H](C)O2
 : 17	.	.	.	.	.
39) CCOC(=O)Cc1csc(SCC(=O)Nc2ccc3[nH]c(=O)[nH]c3c2)n1
 : -11	0	-13	-2	0	-5
40) Cc1csc(SCC(=O)Nc2ccc3[nH]c(=O)[nH]c3c2)n1
 : -12	12	4	1	0	106*
41) Cc1ccc(S(=O)(=O)N(C)c2ccc(OC(=O)c3cccs3)cc2)cc1C
 : -16	.	-13	-1	-1	49*
42) CCCS(=O)(=O)c1nc(S(=O)(=O)c2ccc(C)cc2)c(N2CCC3(CC2)OCCO3)s1
 : 5	4	-2	0	-1	57*

Of the compounds above, these have a Cl atom.
Every second line gives: Yeast UUG start	DYRK1A inh	dFosB activator	CDK5 inh	CAL PDZ FP-1	CAL PDZ FP-2
21) C[C@H]1CN([C@@H](C)CO)C(=O)Cc2cc(NS(=O)(=O)c3ccc(Cl)cc3)ccc2O[C@H]1CN(C)C(=O)Nc1cccc2ccccc12
 : 7	.	.	.	.	.
27) C[C@@H]1CN([C@H](C)CO)C(=O)c2cc(NC(=O)Nc3ccc(C(F)(F)F)cc3)ccc2O[C@H]1CN(C)Cc1ccc(Cl)c(Cl)c1
 : -12	3	-8	-3	0	37*
35) O=[N+]([O-])c1ccc(Sc2n[nH]c(-c3ccc(Cl)cc3Cl)n2)nc1
 : -13	6	13	0	.	43*
37) Cc1cc(C)c(NC(=O)CSc2nc3ncc(Br)cc3[nH]2)c(Cl)c1
 : -21	4	69*	0	-1	-5
